How the values were obtained:
[1] = distilled water, 30° C., 3 hours, supernatant filtered 0.45 μm
[2] = Table 3; solvent not given

Substance	Concentration (solubility in water) [1] [mg/mL]	Concentration (solubility) [2] [mg/mL]
inotodiol succinate ester	0.00271 ± 0.00025	–
inotodiol oleate ester	–	>1000

Source: patent US12454546B2, “Inotodiol ester derivative precursor drug” (CARBOEXPERT INC., priority 2020, dated 2025)
